Laboratory results published in patent US20230021419A1, “BICYCLIC PEPTIDE LIGANDS SPECIFIC FOR IL-17” (BicycleTx Limited, priority 2019, published 2023).

Tests used:
IL-17A [1] = target: T1, IL-17A (Homo sapiens, UniProt Q16552); assay: Human IL-17A fluorescence polarization (FP) competition; type: binding; conditions: tracer BCY13351; 50 nM IL-17A; 1 nM tracer; 25° C.
T1 sequence (Q16552 24-155): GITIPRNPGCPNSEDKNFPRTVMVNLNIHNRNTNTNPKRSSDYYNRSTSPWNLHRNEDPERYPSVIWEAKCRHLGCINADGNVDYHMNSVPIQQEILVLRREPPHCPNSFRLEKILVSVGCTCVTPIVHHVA
Method: Human IL-17A Fluorescence Polarization (FP) Competition
Affinity determination by fluorescence polarization (FP) competition. Bicycles were screened to determine affinity (Ki) in a fluorescence polarisation assay where in competition with a bicycle labelled with fluorescein (referred to as tracer) with a known affinity for IL-17A. Peptides were diluted to an appropriate concentration in assay buffer (PBS+0.01% Tween20, adjusted to pH7.4 using NaOH (1M)) with a maximum of 1% DMSO, then serially diluted 1 in 2 into assay buffer. Into black 384-well low volume plates, 5 μL of diluted peptide was added to the plate followed by 10 μL of IL-17A at a fixed concentration (75 nM IL-17A for tracer BCY13196, 50 nM IL-17A for tracer BCY13351), then 10 μL tracer added to a final concentration of 1 nM. Measurements were conducted on a BMG PHERAstar FS equipped with an “FP 485 520 520” optic module which excites at 485 nm and detects parallel and perpendicular emission at 520 nm. The PHERAstar FS was set at 25° C. with 200 flashes per well and a positioning delay of 0.1 second, with each well measured at 5 to 10 minute intervals for 60 minutes. The gain used for measurements was determined at the point of experiment on a tracer alone well. Data analysis was performed in Dotmatics where mP values were fit to the Cheng Prusoff equation in order to generate a Ki value.
BCY13196: [Fl]-ACPQDLELCTFLFGDCA (SEQ ID NO: 39);
BCY13351: [Fl]-G-[Sar5]-ACDTDPELCRFLGLDCA (SEQ ID NO: 40); and
BCY13352: ACEGDPELCRFLGLECA-[Sar6]-K-[Fl] (SEQ ID NO: 41);
wherein Fl represents fluorescein and Sar represents sarcosine.
Selected peptide ligands of the invention were tested in the above mentioned IL-17A human fluorescence polarization (FP) competition assay and the results are shown in Table 1: […]

IL-17A [2] = target: T1, IL-17A; assay: IL-17A binding assay (method analogous to WO 2011/141823); conditions: read-out: IL-17A Affinity
Method: IL-17A binding was determined using an analogous method to that described in WO 2011/141823.
Selected peptide ligands of the invention were tested in the above mentioned IL-17A binding assay and the results are shown in Table 2: […]

Substance	Ki (IL-17A [1]) [nM]	Kd (IL-17A [2]) [nM]
CiDTDPELCiiSFLGLDCiii [BCY13651]	41.1	
CiDTDPE[tBuAla]CiiRFLGLDCiii [BCY13652]	18.7	
CiDTD[Aze]ELCiiRFLGLDCiii [BCY13205]	84.2	
CiDTDPELCiiR[2PaI]LGLDCiii [BCY13210]	495	
CiDTDPELCiiR[4FPhe]LGLDCiii [BCY13215]	26.1	
CiDTD[Pip]ELCiiRFLGLDCiii [BCY13206]	56.6	
CiDTDPELCiiR[Thi]LGLDCiii [BCY13654]	58.7	
CiDTDPELCiiRFLGVDCiii [BCY13222]	62.9	
CiDTDPELCii[Agb]FLGLDCiii [BCY13637]	32.9	
CiDTD[HyP]ELCiiRFLGLDCiii [BCY13204]	58.6	
CiDTDPELCiiAFLGLDCiii [BCY13208]	36.3	
CiDTDPELCiiRFL[dV]LDCiii [BCY13648]	23	
CiDTDPELCii[ADMA]FLGLDCiii [BCY13636]	25	
CiDTDPELCiiRFLGLDCiii [BCY13202]	13.6	
CiDTDPELCiiR[4PaI]LGLDCiii [BCY13212]	1200	
CiDTDPELCiiRFLGIDCiii [BCY13221]	29.9	
CiDTDPELCiiRFLG[C5A]DCiii [BCY13248]	19.6	
CiDTDPELCiiRF[tBuAla]GLDCiii [BCY13653]		26.8

Substance	Ki (IL-17A [1]) [nM]	Kd (IL-17A [2]) [nM]
CiDTDPELCiiRFLG[tBuAla]DCiii [BCY13220]	14.4	
CiDTD[NMeAla]ELCiiRFLGLDCiii [BCY13207]	31.6	
CiDTDPE[Cba]CiiRFLGLDCiii [BCY13642]	22.7	
CiDTDPELCiiRFL[dA]LDCiii [BCY13201]	23	
CiDTDPELCiiRFLG[Cba]DCiii [BCY13247]	21.2	
CiDTDPELCiiRF[Cba]GLDCiii [BCY13643]	17	
(SEQ ID NO: 35)-[Sar6]-[K(Fl)] [BCY14428]		1.5
(SEQ ID NO: 2)-[Sar6]-[K(Fl)] [BCY14461]		7.9
CiDTDPELCiiRFLNLDCiii [BCY13219]	114	
CiDTDPELCii[NMeArg]FLGLDCiii [BCY13209]	26.6	
(SEQ ID NO: 36)-[Sar6]-[K(Fl)] [BCY14427]		1.4
CiDTDPELCii[HArg]FLGLDCiii [BCY13199]	32.4	
CiDTDPELCiiR[2NaI]LGLDCiii [BCY13216]	1520	
CiDTDPELCiiR[2FuAla]LGLDCiii [BCY13635]		232
CiDTDPELCiiCR[3FPhe]LGLDCiii [BCY13214]	40.5	
CiDTDPELCii[Cav]FLGLDCiii [BCY13641]		50.4
CiDTDPELCiiR[3PaI]LGLDCiii [BCY13211]	572	
CiDTDPELCiiRFL[dE]LDCiii [BCY13647]	28.7	
